Assay results as given in ChEMBL document CHEMBL2176934, “Discovery of highly selective and orally active lysophosphatidic acid receptor-1 antagonists with potent activity on human lung fibroblasts” (J Med Chem, 2012).

Sequences of proteins named here, by UniProt entry; tags and fusion partners are left off. A change or cut given only in a name is not applied to a line headed by its entry.
UniProt Q92633: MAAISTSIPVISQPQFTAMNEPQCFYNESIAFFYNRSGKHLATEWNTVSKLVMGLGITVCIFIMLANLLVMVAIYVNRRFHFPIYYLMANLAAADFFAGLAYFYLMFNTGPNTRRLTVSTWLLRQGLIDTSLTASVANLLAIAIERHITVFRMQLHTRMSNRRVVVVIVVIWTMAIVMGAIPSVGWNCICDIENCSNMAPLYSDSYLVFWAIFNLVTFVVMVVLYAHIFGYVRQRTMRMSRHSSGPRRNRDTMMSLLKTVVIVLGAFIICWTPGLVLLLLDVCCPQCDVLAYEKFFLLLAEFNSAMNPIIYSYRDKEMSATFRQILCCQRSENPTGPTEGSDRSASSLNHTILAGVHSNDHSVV

Biological target: Lysophosphatidic acid receptor 1 (Homo sapiens, UniProt Q92633)
Assay: Antagonist activity at human recombinant LPA1 expressed in chem-1 cells assessed as inhibition of LPA-induced intracellular calcium mobilization incubated for 30 mins prior to LPA-challenge measured over 100 secs by FLIPR assay
Assay type: functional, cell-based
How it was run: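 Calcium-optimized Chem-1 cells stably expressing human LPA1 or LPA3 (parental line with ionomycin as counterscreen), seeded 10,000/well the day before. Calcium-4 dye in HBSS/20 mM HEPES/2.5 mM probenecid loaded 30 min at 37 °C; compound added, 30 min at room temperature in the dark; LPA (18:1) 1 μM final. Peak fluorescence read over 100 s; IC50 from 10-concentration 4-parameter logistic fit, mean of at least three runs.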

Cc1nnn(-c2ccc(-c3ccc(C4(C(=O)O)CC4)cc3)cc2)c1NC(=O)O[C@H](C)c1ccccc1F
IC50: 34.5 nM
